The entries are a selection whose mix differs from that of the whole data set. The source made the active and inactive calls.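 How the source made its calls: active means inhibition above a set limit, near 3 SD of compounds lacking own fluorescence (cut at about 54% in these data); inactive means the rest.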
What follows are molecules tested on beta-arrestin 1 C-terminal peptide binding to AP2 beta2-adaptin appendage (human) (assay: inhibitors of beta-arrestin/AP2 binding, primary screen, biochemical, GPCR trafficking, flow cytometry (AID 504490;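 further: plate controls were DMSO wells for no effect and 5 µM unlabelled arrestin peptide for full effect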)). Conditions: FITC-arrestin peptide / GST-AP2 beads, at 10 µM, stronger effect = higher value, AP2 beta2 appendage carries R879A mutation.

Compound | inhibition
O=P1(Nc2ccc(Br)cn2)COc2ccccc2OC1 | inactive: -2.57%
Nc1cccc([As](=O)(O)c2ccccc2)c1 | inactive: -4.72%
O=P1(Nc2ncccn2)COc2ccccc2OC1 | inactive: -1.77%
CCCC1OP(=O)(Nc2ccccc2)OCC1CC (centres undefined) | inactive: 1.83%
O=C(/C=C/c1ccccc1)OC1CN2CCC1CC2 (centres undefined) | inactive: -12.3%
CN(C)C1(CNC(=O)c2ccc(S(C)(=O)=O)cc2)CCCCC1 | inactive: 28.4%
Cc1ccc(C(=O)OC2CN3CCC2CC3)cc1 (centres undefined) | inactive: 34.7%
CC1CCC(C(C)C)C(OP(=O)(Nc2ccccn2)c2ccccc2)C1 (centres undefined) | inactive: 34.9%
Cc1nn(-c2ccccc2)c2c1P(=O)(N1CCOCC1)N(C)C(c1ccccc1)=N2 (centres undefined) | inactive: -3.48%
CC1(CBr)Cn2c(nc3ccccc3c2=O)S1 (centres undefined) | inactive: -5.01%
CN(C(=O)Cc1ccc(Cl)c(Cl)c1)[C@@H]1CCCC[C@H]1N1CCCC1 | inactive: -5.26%
CC(C)/C=N\N=C(\N)N[N+](=O)[O-] | inactive: 2.11%
COc1ccccc1CNC(=O)COC(=O)C(O)(c1ccccc1)c1ccccc1 | inactive: 5.67%
CC(C)(C)C(=O)NC(Sc1ncccn1)C(Cl)(Cl)Cl (centres undefined) | inactive: 0.28%
Clc1n[nH]nc1-c1nn[nH][15n]1 | inactive: 19.2%
CCOP(=O)(Nc1ccc(C)cn1)OCC | inactive: -2.95%
CCOP(=O)(NC(=NC(C)c1ccccc1)NC(C)c1ccccc1)OCC (centres undefined) | inactive: 13.9%
CCC1=CC2Cc3nc4ccc(Cl)cc4c(N)c3C(C1)C2 (centres undefined) | inactive: -0.1%
O=P1(Nc2ccccn2)COc2ccccc2OC1 | inactive: 0.81%
c1nnnn1CCn1cnnn1 | inactive: -2.81%
O=P(Nc1nccs1)(c1ccccc1)c1ccccc1 | inactive: 0.44%
CC(C)C(=O)NC(Sc1ccccc1)C(Cl)(Cl)Cl (centres undefined) | inactive: 4.25%
C(Cc1nn[nH]n1)Cc1nn[nH]n1 | inactive: 14.3%
Nc1ccc([As](=O)(O)c2ccc([N+](=O)[O-])cc2)cc1 | inactive: -1.27%
O=C(OC1CN2CCC1CC2)c1cccc(Cl)c1 (centres undefined) | inactive: 2.96%

Compound | inhibition
CC(=O)NC(SC(=S)N(C)C)C(Cl)(Cl)Cl (centres undefined) | inactive: 36.5%
O=[N+]([O-])c1ncn(CCn2cnc([N+](=O)[O-])n2)n1 | inactive: 14.8%
O=[N+]([O-])c1ccc(O)c(/C=N/Nc2ccc([N+](=O)[O-])cc2[N+](=O)[O-])c1 | inactive: 4.36%
O=[As](O)(c1ccccc1)c1ccc(O)cc1 | inactive: 32.7%
C[C@H]1OP(=O)(Oc2ccccc2)[C@H](O)[C@H](O)[C@H]1N=[N+]=[N-] (some centres undefined) | inactive: -4.8%
O=P(Nc1nc2ccccc2s1)(c1ccccc1)c1ccccc1 | inactive: 1.72%
COc1ccc(N)c([N+](=O)[O-])c1[N+](=O)[O-] | inactive: -7.04%
CN(C)C1(CNC(=O)c2ccc(Cl)c(S(N)(=O)=O)c2)CCCCC1 | inactive: -1.72%
O=P(Nc1ccccn1)(c1ccc(Br)cc1)c1ccc(Br)cc1 | inactive: -9.47%
O=c1c2cc([N+](=O)[O-])ccc2[nH]c2c([N+](=O)[O-])cc([N+](=O)[O-])cc12 | inactive: -22.6%
CN(C)C(=O)Oc1noc2ccccc12 | inactive: -17.1%
CC(NC(=O)COC(=O)C(O)(c1ccccc1)c1ccccc1)c1ccccc1 (centres undefined) | inactive: 12.8%
Cc1ccccc1OP(=O)(Nc1ccccn1)Oc1ccccc1C | inactive: 8.52%
CC(=O)NC(SC(=S)N(CC(C)C)CC(C)C)C(Cl)(Cl)Cl (centres undefined) | inactive: -16%
COC(=O)c1cc2c(s1)N=C(c1ccccc1)N(C)P2(=O)N1CCOCC1 (centres undefined) | active: 76.9%
CCC(=O)N1C2C3N(C(=O)CC)C1C1N(C(=O)CC)C(C(N1C(=O)CC)N3C(=O)CC)N2C(=O)CC | inactive: 5.1%
O=C(OC1CN2CCC1CC2)c1ccccc1 (centres undefined) | inactive: -0.6%
O=P1(N(CCCl)CCCl)OCCC2CCCCN21 (centres undefined) | inactive: 2.13%
O=C(NC1CCS(=O)(=O)C1)NP(=S)(Oc1ccccc1)Oc1ccccc1 (centres undefined) | inactive: -14.5%
CCNC(=S)/N=C(\N)N[N+](=O)[O-] | inactive: 20.5%
Cc1ccc(NP(=O)(Oc2cccc(C)c2)Oc2cccc(C)c2)nc1 | inactive: 13.5%
c1ccc(-c2nn[nH]n2)c(-c2nn[nH]n2)c1 | inactive: 15.8%
CC(=O)Nc1ccc(Oc2c([N+](=O)[O-])cc([N+](=O)[O-])cc2[N+](=O)[O-])cc1 | inactive: -0.77%
CC(=O)Nc1ccc([As](=O)(O)O)c(O)c1 | inactive: 6.6%
COC(=O)C1(C)COP(=O)(NCc2ccccc2)OC1 (centres undefined) | inactive: -2.07%

Compound | inhibition
CC(=O)c1ccc(N2CC2c2ccncc2)cc1 (centres undefined) | inactive: 12.2%
N#C/C(=C\c1ccc(N(CCBr)CCBr)cc1)C(N)=O | inactive: -0.84%
C[C@H]1OP(=O)(Oc2ccccc2)C[C@@H]2O[C@@H]21 (some centres undefined) | inactive: -2.97%
C[C@@H]1C=CCP(=O)(Oc2ccccc2)O1 (some centres undefined) | inactive: -7.11%
Cc1ccccc1CN(C)C(=O)COC(=O)C(O)(c1ccccc1)c1ccccc1 | inactive: 0.28%
CCc1cc(O)c([N+](=O)[O-])c(C)c1[N+](=O)[O-] | inactive: 2.52%
CC(C)(C)C(=O)NC(Sc1ccccc1)C(Cl)(Cl)Cl (centres undefined) | inactive: -19.6%
CCOc1ccc(C2=NCC(CBr)S2)cc1 (centres undefined) | inactive: 10.8%
O=P1(Nc2nc3ccc(Cl)cc3s2)COc2ccccc2O1 (centres undefined) | inactive: -6.56%
Nc1cc(N)c2nonc2c1[N+](=O)[O-] | inactive: -11.4%
CC(C)CC(=O)NC(Sc1ccc(Cl)cc1)C(Cl)(Cl)Cl (centres undefined) | inactive: 25.9%
O=C(NC(Sc1ccncn1)C(Cl)(Cl)Cl)c1ccccc1 (centres undefined) | inactive: 14.2%
Oc1ccccc1CNc1ccccn1 | inactive: 17%
Cc1ccc(OP(=O)(Nc2nccs2)Oc2ccc(C)cc2)cc1 | inactive: 14.6%
COc1ccccc1OP(=O)(Nc1ccc(C)cn1)Oc1ccccc1OC | inactive: 32.5%
CN1CCCC(OC(=O)C(c2ccccc2)c2ccccc2)C1 (centres undefined) | inactive: 7.38%
Clc1ccc(Cl)c(NC2=NCC(CBr)S2)c1 (centres undefined) | inactive: 15.1%
NC(=O)c1cc([N+](=O)[O-])cc([N+](=O)[O-])c1N | inactive: 1.19%
Cc1ccc(N/C(=N/P(=O)(N2CCOCC2)N2CCOCC2)N2CCOCC2)cc1 | inactive: 7.6%
CN(C(=O)Cc1ccc(Cl)c(Cl)c1)[C@H]1CCCC[C@H]1N1CCCC1 | inactive: -0.15%
CCN(N=Nc1nonc1N)c1nonc1N | inactive: -2.37%
Nc1cccc2ccc([As](=O)(O)O)cc12 | inactive: -4.1%
CN(C(=O)Cc1ccc(Cl)c(Cl)c1)[C@H]1CCCC[C@@H]1N1CCCC1 | inactive: 0.59%
Cc1ccc(NP(=O)(Oc2ccccc2F)Oc2ccccc2F)nc1 | inactive: 6.78%
Cc1cc(SC(NC(=O)c2ccc(F)cc2)C(Cl)(Cl)Cl)ncn1 (centres undefined) | inactive: 12.7%

Compound | inhibition
CCOP(=O)(Nc1ccccc1)OCC | inactive: -0.24%
CCCC1OP(N)(=O)OCC1CC (centres undefined) | inactive: 0.27%
CC(=O)Nc1ccc([As](=O)(O)O)cc1 | inactive: 40.8%
O=C(O)c1ccccc1[As](=O)(O)O | inactive: 1.42%
O=P(Nc1nc2ccc(Cl)cc2s1)(c1ccccc1)c1ccccc1 | inactive: -6.29%
COC(=O)C1(C)COP(=O)(Nc2ccccc2)OC1 (centres undefined) | inactive: -0.62%
O=[N+]([O-])c1cccc(NC2=NCC(CBr)S2)c1 (centres undefined) | inactive: 30.4%
O=C(O)CNc1ccc([As](=O)(O)O)cc1 | inactive: -15.4%
CC(C)(C)C(=O)NC(Sc1ccncn1)C(Cl)(Cl)Cl (centres undefined) | inactive: 9.44%
O=[N+]([O-])c1ncn(CCn2ncnc2[N+](=O)[O-])n1 | inactive: 51.7%
O=C(Nc1cc([As](=O)(O)O)ccc1O)c1ccccc1 | inactive: 8.73%
O=P1(N(CCCl)CCCl)OCCCS1 (centres undefined) | inactive: 1.37%
CN(C)C(=O)OCCc1n(C)cc[n+]1C | inactive: -1.42%
CC(C)=N/N=C(\N)N[N+](=O)[O-] | inactive: -2.82%
CC1CCN(C(=O)Oc2c(Cl)cc(Cl)c3cccnc23)CC1 | inactive: 13%
C[N+]1=C2C=CC=CC=C2SC12C([N+](=O)[O-])=CC([N+](=O)[O-])=C[C-]2[N+](=O)[O-] (centres undefined) | inactive: -7.98%
Nc1ccc([As](=O)(O)c2ccc(N)cc2)cc1 | inactive: 10.3%
CCN(/C(=N/P(=O)(N1CCOCC1)N1CCOCC1)N1CCOCC1)c1ccc(OC)cc1 | inactive: 4.71%
CC(=O)N1C2C3N(C(C)=O)C1C1N(C(C)=O)C(C(N1C(C)=O)N3C(C)=O)N2C(C)=O | inactive: 1.47%
O=[N+]([O-])c1cccc2n[nH]nc12 | inactive: 5.56%
O=[N+]([O-])c1cc([N+](=O)[O-])c(CCNc2ccccc2)c([N+](=O)[O-])c1 | inactive: 42%
CCc1nc2c(n1)c1c(non1O)c1c2no[n+]1[O-] | inactive: 6.74%
Cc1ccc(NP(=O)(Oc2ccccc2)Oc2ccccc2)nc1 | inactive: -9.44%
COc1ccc(C2=NCC(CBr)S2)cc1 (centres undefined) | inactive: -21.1%
